SMILES strings stand for the structures. Only a part is listed here, and it is no random draw. Records with an inconclusive call do not appear. Active and inactive are the calls of the source. Calls follow the shape of the dose curve; as a rule, active = well fitted inhibition curve with a large enough effect in the polarisation, with a control signal flat (not every such curve was filed as active); inconclusive = small, poorly fitted or top-dose-only effect, or effect the other way, or a change in a side signal; inactive = no such curve, though single readings can be large or run the other way; the % refers to the polarisation.
% is scaled to controls: 0 for no effect and ±100 for the full control effect.

The chains behind the UniProt entries cited, without tags or fusion partners.
UniProt Q13526, whole entry: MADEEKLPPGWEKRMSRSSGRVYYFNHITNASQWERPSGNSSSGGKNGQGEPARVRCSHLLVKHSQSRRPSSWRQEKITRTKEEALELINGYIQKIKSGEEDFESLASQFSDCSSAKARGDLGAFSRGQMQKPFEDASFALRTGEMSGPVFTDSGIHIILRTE

This test addresses Peptidyl-prolyl cis-trans isomerase NIMA-interacting 1 (Homo sapiens) (UniProt Q13526). Kind of test: qHTS Assay to Find Inhibitors of Pin1. The conditions noted are these: Pin1 FP peptide displacement, HiFluor488, 10 min; at 115 µM (top of the series). For orientation: In qHTS, concentration-response curves come from the screen itself.
Regarding `Cc1ccccc1C(=O)NCC1(N(C)C)CCCCC1`, the activity, negative = inhibition was inactive: -15.4%. For the compound `COc1cc(OC)cc(C(=O)NCC2(N3CCCCC3)CCCCC2)c1`, the activity, negative = inhibition is inactive: -2.24%. In the case of `CC(=O)N(c1ccccc1)C1CCNCC1`, the activity, negative = inhibition was inactive: -2.15%. Consider `CN(C)C1(CNC(=O)c2ccc(C(C)(C)C)cc2)CCCCC1`, for which the activity, negative = inhibition is inactive: -0.503%.

Turning to `Cc1ccc(NC2(C#N)CCN(Cc3ccccc3)CC2)cc1`, the activity, negative = inhibition is inactive: -2.93%. Then `Fc1ccccc1NC1CCN(Cc2ccccc2)CC1`, with inactive: -2.48%; and `Cc1ccc(C(=O)NCC2(N3CCCCC3)CCCCC2)o1`, with inactive: -3.13%. Turning to `CCC(CO)(C(=O)OC1CN2CCC1CC2)c1ccccc1` (stereo not drawn), the activity, negative = inhibition is inactive: 6.16%. In the case of `COc1cccc(C(=O)N(c2cc(C)cc(C)c2)C2CCN(C(=O)OC(C)(C)C)CC2)c1`, the activity, negative = inhibition was inactive: -6.29%. As for `COc1cc(OC)cc(C(=O)NCC2(N3CCOCC3)CCCCC2)c1`, the activity, negative = inhibition is inactive: 3.28%. With `COc1cc(C(=O)NCC2(N3CCOCC3)CCCCC2)cc(OC)c1OC`, the activity, negative = inhibition is inactive: -5.74%.

As to `CN1CCC(Nc2ccc(Cl)cc2)CC1`, the activity, negative = inhibition is inactive: -5.05%.

As for `CN1CCC(Nc2ccc(F)c(Cl)c2)CC1`, the activity, negative = inhibition is inactive: 2.69%. On to `CCOc1ncccc1C(=O)NCC1(N2CCOCC2)CCCCC1`, for which the activity, negative = inhibition was inactive: -12.2%. `CCCOc1ccc(C(=O)NCC2(N(C)C)CCCCC2)cc1`: the activity, negative = inhibition was inactive: -6.16%. In the case of `O=C(O)C1(Nc2ccccc2)CCN(Cc2ccccc2)CC1`, the activity, negative = inhibition is inactive: -5.46%. `CC(C)(C)OC(=O)N1CCC(Nc2ccccc2)CC1`: the activity, negative = inhibition is inactive: -4.22%. `N/C(=N\O)c1c(N)no[n+]1[O-]`: the activity, negative = inhibition is inactive: -11.4%.

Regarding `CCOC(=O)N1CCC(Nc2ccc(C)cc2)CC1`, the activity, negative = inhibition is inactive: -1.76%.

For the compound `O=C(OC1CN2CCC1CC2)C1c2ccccc2C=Cc2ccccc21` (stereo not drawn), the activity, negative = inhibition was inactive: -6.53%.

On to `CCc1cc(C(=O)NCC2(N3CCCCC3)CCCCC2)sc1C`, for which the activity, negative = inhibition was inactive: -4.45%.

For `O=C(NCC1(N2CCOCC2)CCCCC1)c1cc(Br)ccc1Cl`, the activity, negative = inhibition was inactive: 2.12%. For `COc1cc(C(=O)NCC2(N3CCOCC3)CCCCC2)cc(OC)c1C`, the activity, negative = inhibition was inactive: 3.63%. In the case of `COc1ccc(C(=O)NCC2(N3CCOCC3)CCCCC2)cc1OC`, the activity, negative = inhibition is inactive: -1.27%. With `Cc1cc(N(CCCl)CCCl)ccc1C=O`, the activity, negative = inhibition is inactive: -0.956%. Regarding `O=C(NCC1(N2CCOCC2)CCCCC1)c1ccccc1`, the activity, negative = inhibition is inactive: -8.7%.

For `c1ccc(CN2CCC(Nc3ccccc3)CC2)cc1`, the activity, negative = inhibition was inactive: -4.59%.

In the case of `CN(C)C1(CNC(=O)c2cccc(C#N)c2)CCCCC1`, the activity, negative = inhibition is inactive: -0.594%. For `CC(C)(C)OC(=O)N1CCC(N(C(=O)c2ccccc2)c2ccc(Cl)cc2)CC1`, the activity, negative = inhibition was inactive: -3.94%.

`O=C(NCC1(N2CCOCC2)CCCCC1)c1ccc([N+](=O)[O-])cc1`: the activity, negative = inhibition was inactive: -1.74%. For `O=C(NCC1(N2CCOCC2)CCCCC1)c1ccccc1[N+](=O)[O-]`, the activity, negative = inhibition was inactive: -5.94%. As for `N#Cc1ccc(C(=O)NCC2(N3CCCCC3)CCCCC2)cc1`, the activity, negative = inhibition is inactive: 9.71%.

Consider `CCOC(=O)C(CC)C1=NC(C)(C)Cc2ccccc21.O=[N+]([O-])c1cc([N+](=O)[O-])c(O)c([N+](=O)[O-])c1` (stereo not drawn), for which the activity, negative = inhibition is inactive: 2.07%.

The values are drawn from PubChem BioAssay AID504891 (National Center for Advancing Translational Sciences (NCATS), 2011).
